Measurements taken from USRE47475E1, “Selective agents for pain suppression” (WiSys Technology Foundation, Inc., priority 2002, dated 2019).

Target: T1, GABAA/α1 (α1β3γ2 GABAA receptor) (Homo sapiens, UniProt P14867+P18507)
T1 construct: expressed in transfected cells
Assay: competitive binding assay with [3H]flunitrazepam
Details: Table 4, stereoisomers; read-out: Binding Affinity at GABAA/α1

## C#Cc1ccc2c(c1)C(c1ccccc1F)=NC(C)c1c(C(=O)OCC)ncn1-2 (single isomer, unassigned) [SH-053-2′F-S-CH3, 8-Ethynyl-6-(2-fluorophenyl)-4-methyl-4H-2,5,10b-triazabenzo[e]azulene-3-carboxylic acid ethyl ester]
  Ki: 468 nM
